# Source: PubChem BioAssay AID2306 (GlaxoSmithKline (GSK), 2010)
# Only a part is listed here, and it is no random draw. Activity calls are given as the source filed them. No rule for the calls is given here.
# Test: inhibition of 3D7 malaria parasite growth – strain 3D7 (AID 2306);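 also: 0% = DMSO wells and 100% = chloroquine plus artemisinin control wells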
# Details: P. falciparum 3D7 erythrocytic growth, LDH absorbance, 72 h; at 2 µM; active compounds read high
row,SMILES,growth inhibition
1,COc1cc(C(=O)NC(SC2=NCCS2)C(Cl)(Cl)Cl)cc(OC)c1OC (stereo unspecified),active: 88%
